# From patent publication US20220289727A1, “ENZYME INHIBITORS” (KALVISTA PHARMACEUTICALS LIMITED, priority 2019, published 2022)
# Amino acid sequences for entries named in this document (tags omitted). Residues count along the entry.
# UniProt P00748, 373-615 limits assumed: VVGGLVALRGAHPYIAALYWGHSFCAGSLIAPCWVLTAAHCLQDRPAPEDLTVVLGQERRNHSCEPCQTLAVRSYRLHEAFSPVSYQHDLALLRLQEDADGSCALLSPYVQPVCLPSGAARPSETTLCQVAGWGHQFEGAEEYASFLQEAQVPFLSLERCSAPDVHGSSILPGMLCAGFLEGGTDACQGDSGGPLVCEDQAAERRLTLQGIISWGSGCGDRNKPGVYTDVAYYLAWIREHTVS
# UniProt P00748, 20-372 partner limits assumed: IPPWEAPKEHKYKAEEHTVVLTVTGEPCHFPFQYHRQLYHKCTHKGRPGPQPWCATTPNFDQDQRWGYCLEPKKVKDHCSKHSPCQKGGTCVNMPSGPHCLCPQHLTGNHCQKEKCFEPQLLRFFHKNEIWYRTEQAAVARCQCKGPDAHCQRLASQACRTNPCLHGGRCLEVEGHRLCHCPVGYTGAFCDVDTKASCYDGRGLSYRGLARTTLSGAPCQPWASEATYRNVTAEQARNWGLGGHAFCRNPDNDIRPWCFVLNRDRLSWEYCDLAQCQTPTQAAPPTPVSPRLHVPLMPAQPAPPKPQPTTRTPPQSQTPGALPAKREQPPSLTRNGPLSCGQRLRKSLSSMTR
# Target: Human Factor XIIa (Homo sapiens, UniProt P00748)
# Test: Determination of FXIIa inhibitory activity in vitro (fluorogenic substrate H-DPro-Phe-Arg-AFC)
# Format: biochemical
# Conditions: read-out: Human FXIIa IC50, 25° C., residual enzyme activity (initial rate)
compound,measurement,value
Nc1nccc2cc(CNC(=O)c3cc4c(Br)cccc4s3)ccc12,IC50,< 1000 nM
